This assay deals with Protease (Human immunodeficiency virus 1, UniProt Q9YQ12). The experiment in a line: Inhibition of HIV1 protease expressed in Escherichia coli incubated for 20 to 30 mins at room temperature using (Arg-Glu(EDANS)-Ser-Gln-Asn-Tyr-Pro-Ile-Val-Gln-Lys(DABCYL)-Arg) substrate by FRET method.

Structures are written as SMILES.

On to `CC(C)(C)NC(=O)[C@@H]1CN(Cc2cccnc2)CCN1C[C@@H](O)C[C@@H](Cc1ccccc1)C(=O)N[C@H]1c2ccccc2C[C@H]1O`, for which half-maximal inhibition (IC50) was put at 0.88 nM.

The record behind these values is ChEMBL document CHEMBL3400103, “Synthesis and biological evaluation of novel HIV-1 protease inhibitors using tertiary amine as P2-ligands” (Bioorg Med Chem Lett, 2015).
